# Laboratory results: patent US20030125363A1, “Riluzole and alpha-tocopherol combination” (priority 1998, published 2003)
# Tested on: malondialdehyde
smiles,measurement,setting,value
"Nc1nc2ccc(OC(F)(F)F)cc2s1 [RILUZOLE AND PLACEBO, 2-amino-6-trifluoromethoxybenzothiazole]",Δ M3-M0 (plasma malondialdehyde),change of mean value between inclusion and 3 months,0.22 ± 0.40 µM
same,Concentration at M3 (plasma malondialdehyde),"mean value, at 3 months",2.72 ± 0.40 µM
same,Concentration at M0 (plasma malondialdehyde),"mean value, baseline at inclusion M0",2.94 ± 0.40 µM
